Literature values as cited in US9782396B2.
Only a part of the results on these compounds is given; other tests are left out.

Conditions: stated as basis of the washout period

In the case of `CCC(=O)N(c1ccccc1)C1(COC)CCN(CCn2nnn(CC)c2=O)CC1`, the half-life of alfentanil is listed as “approximately 1.5 hours”.
